{
  "sequences": {"note": "The chains behind the UniProt entries cited, without tags or fusion partners. Where a name states a change or a piece, a line headed by the entry shows the natural chain unless it says otherwise.", "UniProt P43220, whole entry, stated change not applied": "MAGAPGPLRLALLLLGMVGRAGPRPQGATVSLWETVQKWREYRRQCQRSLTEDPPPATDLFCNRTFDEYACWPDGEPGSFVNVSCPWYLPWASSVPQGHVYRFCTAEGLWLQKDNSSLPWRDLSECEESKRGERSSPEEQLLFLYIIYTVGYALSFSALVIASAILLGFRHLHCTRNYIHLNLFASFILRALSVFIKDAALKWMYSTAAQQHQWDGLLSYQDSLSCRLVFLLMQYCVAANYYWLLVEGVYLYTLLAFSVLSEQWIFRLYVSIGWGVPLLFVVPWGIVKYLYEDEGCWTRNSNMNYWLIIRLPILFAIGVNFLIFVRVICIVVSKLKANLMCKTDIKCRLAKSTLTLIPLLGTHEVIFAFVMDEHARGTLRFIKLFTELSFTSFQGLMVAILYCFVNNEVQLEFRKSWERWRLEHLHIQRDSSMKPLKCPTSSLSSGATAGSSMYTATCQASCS"},
  "source": "PubChem BioAssay AID624172",
  "about": "(National Center for Advancing Translational Sciences (NCATS), 2012)",
  "biological_target": "Glucagon-like peptide 1 receptor (Homo sapiens) (UniProt P43220)",
  "experiment": "qHTS of GLP-1 Receptor Agonists; further: % of control where 0% means no effect",
  "conditions": "HEK293 GLP-1R CRE-luciferase, luminescence, 4-6 h, cells express a hypersensitive GLP-1R form; at 45.6 µM (top of the series) unless noted",
  "excerpt": "The overall goal of this project was to develop a novel assay for discovering small molecule ligands for class B1 G protein-coupled receptors (GPCRs). Very few agonists (or inverse agonists) with generally weak activity for this entire group of physiologically important receptors are known to date. To establish proof-of-principle that this critical bottleneck can be overcome with a suitable screening approach, our studies focused on the class B1 receptor for glucagon-like peptide-1 (GLP-1R), a potential therapeutic target for diabetes and neurodegenerative disease.\nThe assay was developed in a \"mix and measure\" format using a cell-based functional readout. Toward this goal, stably transfected HEK293 cell clones were established that co-express (i) a cAMP-responsive luciferase reporter gene, and (ii) GLP-1Rs that upon ligand interaction either stimulate (agonists) or inhibit (inverse agonists) luciferase activity. In different cell lines to be used for screening, expressed GLP-1Rs are specifically optimized for high sensitivity detection of either weak agonists (hypersensitive receptor) or inverse agonists (constitutively active receptor mutant). In addition, control cell lines were developed that express either the cAMP-responsive reporter gene without recombinant GLP-1Rs (enabling initial exclusion of GLP-1R independent effects of candidate probes), or the reporter gene together with wild type GLP-1Rs (for confirmation of probe activity at this receptor), or the reporter gene in combination with the constitutively active orphan receptor GPR119 (enabling initial exclusion of GLP-1R independent inhibitory effects of candidate inverse agonists).\nTo that end, this assay was optimized for 1536-well format and screened against the MLSMR.\nNIH Molecular Libraries Probe Production Network [MLPCN]\nNIH Chemical Genomics Center [NCGC]\nPI Name: Martin Beinborn, Tufts Medical Center\nIn a white solid 1536-well plate, 6 uL of cells are dispensed in DMEM without phenol red, 10% Nu serum, and 1% pen-strep medium. The plates are then incubated for 12 hours at 37 deg C at 5% CO2 before 23 nL of compounds are added. After a 4-6 hr incubation at37 deg C and 5% CO2, 3 uL of detection reagent are added and after a 12 min incubation at RT, a luminescent read is obtained on the ViewLux.",
  "note": "The list shows a part of the results, in another mix than the full data. The source made the active and inactive calls. The call rests on the fitted dose curve; in most records, active means well fitted activation curve with a large enough effect; inconclusive means small, poorly fitted or top-dose-only effect; inactive means no such curve, though single readings can be large or run the other way.",
  "data": [
    {"smiles": "Cc1cccc([N+](=O)[O-])c1[N+](=O)[O-]", "values": [
      {"measurement": "activation", "value": "inactive: 0.496% [at 96 µM]"}
    ]},
    {"smiles": "CCOC(=O)c1ccc(NP(C)(=O)Oc2ccc(F)cc2)cc1", "note": "(stereo not given)", "values": [
      {"measurement": "activation", "value": "inactive: -0.324%"}
    ]},
    {"smiles": "COc1ccc(OP(C)(=O)Nc2ccc(SC(F)(F)F)cc2)cc1", "note": "(stereo not given)", "values": [
      {"measurement": "activation", "value": "inactive: 17.1%"}
    ]},
    {"smiles": "Cc1c([N+](=O)[O-])cc([N+](=O)[O-])c(Br)c1[N+](=O)[O-]", "values": [
      {"measurement": "activation", "value": "inactive: 0.533%"}
    ]},
    {"smiles": "CCN(CC)CCCOC(=O)C(O)(c1ccccc1)C1CCCCC1", "note": "(stereo not given)", "values": [
      {"measurement": "activation", "value": "inactive: 1.01%"}
    ]},
    {"smiles": "CP(=O)(Nc1ccccc1)Oc1ccc(F)cc1", "note": "(stereo not given)", "values": [
      {"measurement": "activation", "value": "inactive: 1.32%"}
    ]},
    {"smiles": "CCCCCOc1ccc(NP(C)(=O)Oc2ccc(Cl)cc2Cl)cc1", "note": "(stereo not given)", "values": [
      {"measurement": "activation", "value": "inactive: -3.69%"}
    ]},
    {"smiles": "CP(=O)(Nc1ccccc1F)Oc1ccccc1", "note": "(stereo not given)", "values": [
      {"measurement": "activation", "value": "inactive: -0.11%"}
    ]},
    {"smiles": "CC(C)c1ccc(OP(C)(=O)Nc2ccc(SC(F)(F)F)cc2)cc1", "note": "(stereo not given)", "values": [
      {"measurement": "activation", "value": "inactive: -3.94%"}
    ]},
    {"smiles": "O=C(OCCN1CCN(CCOCc2ccccc2)CC1)C(O)(c1ccccc1)c1ccccc1", "values": [
      {"measurement": "activation", "value": "inactive: -4.39%"}
    ]},
    {"smiles": "CCOP(=O)(CC)Oc1ccc([N+](=O)[O-])cc1", "note": "(stereo not given)", "values": [
      {"measurement": "activation", "value": "inactive: -2.99%"}
    ]},
    {"smiles": "CP(=O)(Nc1ccc(SC(F)(F)F)cc1)Oc1ccc(F)cc1", "note": "(stereo not given)", "values": [
      {"measurement": "activation", "value": "inactive: 0.909%"}
    ]},
    {"smiles": "CCOP(C)(=S)SCC(=O)NC(C)(CC)C(=O)O", "note": "(stereo not given)", "values": [
      {"measurement": "activation", "value": "inactive: -2.42%"}
    ]},
    {"smiles": "CP(=O)(Nc1ccc2c(c1)OCCO2)Oc1ccccc1", "note": "(stereo not given)", "values": [
      {"measurement": "activation", "value": "inactive: -5.22%"}
    ]},
    {"smiles": "Cc1ccccc1NP(C)(=O)Nc1ccccc1C", "values": [
      {"measurement": "activation", "value": "inactive: -3.09%"}
    ]},
    {"smiles": "O=[N+]([O-])c1cc([N+](=O)[O-])c(C(F)(F)F)c([N+](=O)[O-])c1O", "values": [
      {"measurement": "activation", "value": "inactive: 4.78%"}
    ]},
    {"smiles": "COc1ccc(OP(C)(=O)Nc2cccc(Br)c2)cc1", "note": "(stereo not given)", "values": [
      {"measurement": "activation", "value": "inactive: 6.58%"}
    ]},
    {"smiles": "CN(C)CCOC(=O)C(O)(c1ccccc1)C1CCCCC1", "note": "(stereo not given)", "values": [
      {"measurement": "activation", "value": "inactive: 2.33%"}
    ]},
    {"smiles": "COc1ccc(NP(C)(=O)Oc2ccccc2OC)cc1", "note": "(stereo not given)", "values": [
      {"measurement": "activation", "value": "inactive: 1.76%"}
    ]},
    {"smiles": "O=[N+]([O-])c1ccc(OP2(=O)COCCO2)cc1", "note": "(stereo not given)", "values": [
      {"measurement": "activation", "value": "inactive: 5.31%"}
    ]},
    {"smiles": "Cc1cc(-c2cccc3ccccc23)c(C)cn1.O=[N+]([O-])c1cc([N+](=O)[O-])c(O)c([N+](=O)[O-])c1", "values": [
      {"measurement": "activation", "value": "inactive: 1.65%"}
    ]},
    {"smiles": "Cc1c(C(c2ccc3c(c2)OCO3)c2c(C)n(C)n(-c3ccccc3)c2=O)c(=O)n(-c2ccccc2)n1C.O=[N+]([O-])c1cc([N+](=O)[O-])c(O)c([N+](=O)[O-])c1", "values": [
      {"measurement": "activation", "value": "inactive: -2.58%"}
    ]},
    {"smiles": "Nc1ccc2c(ccc3cccnc32)n1.O=[N+]([O-])c1cc([N+](=O)[O-])c(O)c([N+](=O)[O-])c1", "values": [
      {"measurement": "activation", "value": "inactive: 4.37%"}
    ]},
    {"smiles": "CCOC(=O)c1ccc(NP(C)(=O)Oc2ccc(Cl)cc2)cc1", "note": "(stereo not given)", "values": [
      {"measurement": "activation", "value": "inactive: 12%"}
    ]},
    {"smiles": "CP(=O)(OC12CC3CC(CC(C3)C1)C2)OC12CC3CC(CC(C3)C1)C2", "values": [
      {"measurement": "activation", "value": "inactive: -3.75%"}
    ]},
    {"smiles": "CC(C)OP(=O)(F)OC(C)C", "values": [
      {"measurement": "activation", "value": "inactive: -2.49%"}
    ]},
    {"smiles": "C/C1=C2N=C(/C=C3N=C(/C(C)=C4\\[N-][C@@](C)([C@H]5N=C1[C@@](C)(CCC(=O)NC[C@H](C)OP(=O)([O-])O[C@@H]1[C@H](O)[C@H](n6cnc7cc(C)c(C)cc76)O[C@@H]1CO)[C@@H]5CC(N)=O)[C@](C)(CC(N)=O)[C@H]4CCC(N)=O)[C@@](C)(CC(N)=O)[C@@H]\\3CCC(N)=O)C(C)(C)[C@@H]/2CCC(N)=O.[C-]#N.[Co+3]", "values": [
      {"measurement": "activation", "value": "inactive: -0.0013% [at 19.8 µM]"}
    ]},
    {"smiles": "COc1ccc(OP(C)(=O)Nc2ccc(Br)cc2)cc1", "note": "(stereo not given)", "values": [
      {"measurement": "activation", "value": "inactive: 7.46%"}
    ]},
    {"smiles": "CCN(CC)CC(O)COC(=O)C(O)(c1ccccc1)C1CCCCC1", "note": "(stereo not given)", "values": [
      {"measurement": "activation", "value": "inactive: -11.6%"}
    ]},
    {"smiles": "N#[O+].[C-]#N.[C-]#N.[C-]#N.[C-]#N.[C-]#N.[Fe+2].[Na+].[Na+]", "values": [
      {"measurement": "activation", "value": "inactive: 8.95%"}
    ]},
    {"smiles": "OCCSCCO", "values": [
      {"measurement": "activation", "value": "inactive: 2.52%"}
    ]},
    {"smiles": "O=C(OCCCN1CCCC1)C(O)(c1ccccc1)C1CCCCC1", "note": "(stereo not given)", "values": [
      {"measurement": "activation", "value": "inactive: -18.4%"}
    ]},
    {"smiles": "COc1ccccc1OP(C)(=O)Nc1c(C)n(C)n(-c2ccccc2)c1=O", "note": "(stereo not given)", "values": [
      {"measurement": "activation", "value": "inactive: -8.93%"}
    ]},
    {"smiles": "CCc1ccc(OP(C)(=O)Nc2cccnc2)cc1", "note": "(stereo not given)", "values": [
      {"measurement": "activation", "value": "inactive: -0.572%"}
    ]},
    {"smiles": "CP(=O)(Oc1ccccc1)N1CCOC1=O", "note": "(stereo not given)", "values": [
      {"measurement": "activation", "value": "inactive: -2.09%"}
    ]},
    {"smiles": "COc1ccccc1OP(C)(=O)Nc1ccccc1Br", "note": "(stereo not given)", "values": [
      {"measurement": "activation", "value": "inactive: 0.4%"}
    ]},
    {"smiles": "CC(C)(C)c1ccc(OP(C)(=O)O)cc1", "values": [
      {"measurement": "activation", "value": "inactive: -14.1%"}
    ]},
    {"smiles": "CP(=O)(Nc1ccc(Cl)cc1)Oc1ccc(F)cc1", "note": "(stereo not given)", "values": [
      {"measurement": "activation", "value": "inactive: 3.59%"}
    ]},
    {"smiles": "CN(C)C(=O)c1c([N+](=O)[O-])cc([N+](=O)[O-])cc1[N+](=O)[O-]", "values": [
      {"measurement": "activation", "value": "inactive: -7.13%"}
    ]},
    {"smiles": "COc1ccccc1OP(C)(=O)Nc1ccc(Br)cc1", "note": "(stereo not given)", "values": [
      {"measurement": "activation", "value": "inactive: 10.1%"}
    ]},
    {"smiles": "COc1ccc(OP(C)(=O)Nc2ccccn2)cc1", "note": "(stereo not given)", "values": [
      {"measurement": "activation", "value": "inactive: 0.628%"}
    ]},
    {"smiles": "CN(C)CCOC(=O)C(O)(c1ccccc1)C1CCCC1", "note": "(stereo not given)", "values": [
      {"measurement": "activation", "value": "inactive: -1.44%"}
    ]},
    {"smiles": "Cc1c(NP(C)(=O)Oc2ccc(C(C)C)cc2)c(=O)n(-c2ccccc2)n1C", "note": "(stereo not given)", "values": [
      {"measurement": "activation", "value": "inactive: 3.62%"}
    ]},
    {"smiles": "O=[N+]([O-])c1cc([N+](=O)[O-])c(Nc2ccccn2)c([N+](=O)[O-])c1", "values": [
      {"measurement": "activation", "value": "inactive: -4.25%"}
    ]},
    {"smiles": "COc1ccccc1OP(C)(=O)Nc1ccc(C)cc1C", "note": "(stereo not given)", "values": [
      {"measurement": "activation", "value": "inactive: 7.87%"}
    ]},
    {"smiles": "CP(=O)(Nc1ccccn1)Oc1ccccc1", "note": "(stereo not given)", "values": [
      {"measurement": "activation", "value": "inactive: -0.364%"}
    ]},
    {"smiles": "CCc1ccc(OP(C)(=O)O)cc1", "values": [
      {"measurement": "activation", "value": "inactive: 3.88%"}
    ]},
    {"smiles": "Cc1cc(C)cc(OP(C)(=O)Nc2cccc(C(F)(F)F)c2)c1", "note": "(stereo not given)", "values": [
      {"measurement": "activation", "value": "inactive: 7.7%"}
    ]},
    {"smiles": "COc1ccccc1OP(C)(=O)Nc1ccc(C)c(C)c1", "note": "(stereo not given)", "values": [
      {"measurement": "activation", "value": "inactive: -1.12%"}
    ]},
    {"smiles": "COc1ccc(OP(C)(=O)Nc2ccccc2Br)cc1", "note": "(stereo not given)", "values": [
      {"measurement": "activation", "value": "inactive: 13.9%"}
    ]}
  ]
}
